# Laboratory results reported in patent EP0121012A1, “Oral compositions” (UNILEVER PLC, priority 1983, dated 1984).
# Experiments:
# [1] = Dissolution of hydroxyapatite discs following fluoride treatment (phosphate release); settings: 1000 ppm F- solution, vs disc treated with buffer alone, means of triplicate, 30 min
# Osborne-Mendel rats = test: Rat caries study; type: in vivo; settings: 1000 ppm F-, 21 days
substance,measurement,setting,value
sodium monofluorophosphate,% Reduction in Dissolution,[1]; pH 4.0,26%
same,% Reduction in Dissolution,[1]; pH 5.0,23%
same,% Reduction in Dissolution,[1]; pH 6.0,22%
same,% Reduction in Dissolution,[1]; pH 7.0,20%
same,Caries/ Rat,"Osborne-Mendel rats; topical to molar teeth, cariogenic diet, only severe lesions (B & C) scored, water control 5.25",3.69
same,% Reduction,"Osborne-Mendel rats; reduction in caries based on the water control, topical",29.7%
